Laboratory results from patent US20240217973A1, “IMIDAZOPYRIDINE COMPOUNDS AND USE THEREOF” (MEDSHINE DISCOVERY INC., priority 2021, published 2024).

Sequences of proteins named here, by UniProt entry; tags and fusion partners are left off.
UniProt Q06187, whole entry: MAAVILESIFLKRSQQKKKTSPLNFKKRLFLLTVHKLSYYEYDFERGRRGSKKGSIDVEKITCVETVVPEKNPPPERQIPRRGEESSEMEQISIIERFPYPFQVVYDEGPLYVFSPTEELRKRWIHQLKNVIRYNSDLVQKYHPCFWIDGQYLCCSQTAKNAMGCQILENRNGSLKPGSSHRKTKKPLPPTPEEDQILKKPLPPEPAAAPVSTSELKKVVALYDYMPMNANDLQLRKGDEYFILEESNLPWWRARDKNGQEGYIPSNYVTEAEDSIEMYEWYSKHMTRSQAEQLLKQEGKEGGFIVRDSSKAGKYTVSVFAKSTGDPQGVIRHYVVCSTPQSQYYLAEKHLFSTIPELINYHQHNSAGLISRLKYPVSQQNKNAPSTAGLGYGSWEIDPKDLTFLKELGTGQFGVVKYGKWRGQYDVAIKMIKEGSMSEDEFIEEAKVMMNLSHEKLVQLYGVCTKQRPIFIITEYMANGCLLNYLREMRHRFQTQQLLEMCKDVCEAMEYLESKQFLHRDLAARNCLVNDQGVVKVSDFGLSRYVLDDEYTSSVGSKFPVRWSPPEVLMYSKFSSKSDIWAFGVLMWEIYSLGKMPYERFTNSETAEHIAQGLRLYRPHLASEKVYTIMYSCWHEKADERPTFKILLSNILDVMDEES

Legend:
[1] = Hepatocyte metabolic stability experiment (HMS), H; conditions: H hepatocytes, 1 μM
Description: (§1) Experimental operations: 198 μL of hepatocyte suspension (0.51×10^6 cells/mL) was added to the preheated incubation plate, and 198 μL of culture medium without hepatocytes was added to T0-MC and T120-MC incubation plates for the culture medium control group, and all incubation plates were pre-incubated for 10 minutes in a 37° C. incubator. Then 2 μL of the working solution of the test and control compounds were added and mixed well, and the incubation plate was immediately put into the plate shaker in the incubator, the rotation speed was adjusted to about 650 rpm, and the timer and the reaction were started. 2 duplicate samples for each compound were prepared at each time point. Incubation conditions: 37° C., saturated humidity, and containing 5% CO2. In the test system, the final concentration of the test compound was 1 μM, the final concentration of the control compound was 3 μM, the final concentration of hepatocytes was 0.5×10^6 cells/mL, and the final concentration of the total organic solvent was 0.96%, of which the final concentration of DMSO was 0.1%. […] All samples were mixed and analyzed by LC-MS/MS method. […]

[2] = biological target: BTK kinase (Homo sapiens (Human), UniProt Q06187); assay: BTK kinase experiment (ADP-Glo); conditions: read-out: BTK IC50; 2 μM ATP, PolyE4Y1 substrate, 30 minutes pre-incubation
Description: BTK kinase, PolyE4Y1 substrate and Kinase assay buffer III were purchased from Signalchem; ADP-Glo Kinase Assay was purchased from Promega; Nivo multi-label analyzer (PerkinElmer).
1× buffer preparation (which was prepared and used immediately): Kinase assay buffer III was diluted with ddH2O to 1× assay buffer for later use.
The compound to be tested was diluted with 100% DMSO to 10 μM as the first concentration, and followed by a 5-fold dilution to the 8th concentration using a multi-channel pipette, i.e., it was diluted from 10 μM to 0.128 nM.
Each gradient of the compound to be tested was diluted into a working solution with 5% DMSO using 1× buffer, 1 μL/well was added to the corresponding well, and a double-replicate well experiment was set up. 2 μL of BTK enzyme (4 ng) was add to each well and incubating at 25° C. for 30 minutes. After the incubation was completed, 2 μL of a mixture of substrate and ATP (2 μM ATP, 0.2 μg/μL PolyE4Y1) was added to each well and incubating at 25° C. for 120 minutes. At this point, the final concentration gradient of the compound was diluted from 100 nM to 0.00128 nM. […] After reacting at 25° C. for 30 minutes, PerkinElmer Nivo multi-label analyzer was used to read the chemiluminescence, and the integration time was 0.5 seconds. […]

[3] = test system: plasma proteins; assay: Plasma protein binding experiment (PPB), D; conditions: 2 μM, 4 hours dialysis
Description: Experimental operation: 995 μL of blank plasma of each genus was taken, 5 μL of working solution of test compound (400 μM) or working solution of warfarin (400 μM) was added, so that the final concentrations of the test compound and warfarin in the plasma sample was 2 μM. The sample was mixed thoroughly. The final concentration of the organic phase DMSO was 0.5%; 50 μL of plasma samples of the test compound and warfarin were pipetted into the sample receiving plate (three parallels), and the corresponding volume of the corresponding blank plasma or buffer was immediately added so that the final volume of each sample well was 100 μL, with a volume ratio of 1:1 for plasma: dialysis buffer, and then 500 μL of stop solution was added to these samples, and these samples would be used as a T0 sample for the recovery and stability determination. […] All samples were analyzed by LC/MS/MS after protein precipitation, and the protein binding rate and recovery rate were calculated by the formula: % Unbound=100*F/T, % Bound=100−% Unbound, % Recovery 100*(F+T) T0 (where F was the peak area ratio of the compound in the dialysate after 4 hours of dialysis; T was the peak area ratio of the compound in the plasma after 4 hours of dialysis, and T0 was the peak area ratio of the compound in the plasma sample at zero time).

[4] = Hepatocyte metabolic stability experiment (HMS), R; conditions: R hepatocytes, 1 μM
Description: as §1

[5] = Pharmacokinetic evaluation of compounds in rats; conditions: SD rats
Description: Experimental purpose: To test the in vivo pharmacokinetic data of compounds in SD rats.
(§2) The compound was mixed with the solvent 5% DMSO/5% Solutol/90% H2O, vortexed and sonicated to prepare a 0.5 mg/mL clear solution. The rats were administered the candidate compound solution intravenously. Whole blood was collected for a certain period of time, and plasma was prepared. The drug concentration was analyzed by LC-MS/MS method, and pharmacokinetic parameters were calculated.
as §2, with “2” for “0.5”, “administered” for “administered the”, “solutions orally.” for “solution intravenously.”

[6] = IV, 1.0 mg/kg (002), 0.85 mg/kg (003B)
[7] = PO, 9.2 mg/kg (002), 8.4 mg/kg (003B)

SMILES: Nc1nccc2c1n(-c1ccc(Oc3ccccc3)cc1)c(=O)n2C1CCN(C(=O)/C=C/CF)C1 (single isomer, unassigned) [Compound 003B]
- HMS CLint(liver) [1]: 39.8 mL/min/kg
- IC50 [2]: 1.9 nM
- Unbound PPB [3]: 10.9%
- HMS CLint(liver) [4]: 297 mL/min/kg
- AUC0-inf [5, 6]: 0.705 µM·h
- C0 [5, 6]: 2200 nM
- Cl [5, 6]: 50.2 mL/min/kg
- T1/2 [5, 6]: 19.2 min
- Vd [5, 6]: 1.16 L/kg
- AUC0-inf [5, 7]: 2.117 µM·h
- Cmax [5, 7]: 1120 nM
- F % [5, 7]: 30.0%
- T1/2 [5, 7]: 93.6 min
- Tmax [5, 7]: 22.8 min
